Experimental data taken from PMC8484043 (Bioorganic & medicinal chemistry letters, 2021).

By UniProt entry, the sequences of proteins in these tests, tags left out.
UniProt Q9NYA1, whole entry: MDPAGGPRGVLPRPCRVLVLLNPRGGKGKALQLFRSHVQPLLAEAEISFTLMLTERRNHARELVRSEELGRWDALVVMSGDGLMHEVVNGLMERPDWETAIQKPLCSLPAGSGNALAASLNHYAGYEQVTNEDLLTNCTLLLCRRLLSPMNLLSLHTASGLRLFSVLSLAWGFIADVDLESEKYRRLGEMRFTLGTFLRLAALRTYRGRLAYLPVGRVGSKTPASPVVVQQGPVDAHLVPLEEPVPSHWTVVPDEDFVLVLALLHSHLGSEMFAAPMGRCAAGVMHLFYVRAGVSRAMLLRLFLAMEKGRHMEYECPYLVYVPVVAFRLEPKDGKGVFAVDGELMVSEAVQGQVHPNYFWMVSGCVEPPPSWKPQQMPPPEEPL

Target: sphingosine kinase 1 (Homo sapiens, UniProt Q9NYA1)
Format: biochemical
Conditions: single point assay, 1% DMSO, 100μM ATP

Mean SinglePoint (% inhibition) [Std. Dev (n = 4)] | SMILES
18 [5.0] % inhibition | O=C(N/N=C/c1cccnc1)c1cc(-c2ccc3ccccc3c2)[nH]n1 [4 M]
−15 [8.3] % inhibition | O=C(N/N=C/c1ccc(Cl)cc1)c1cc(-c2ccc3ccccc3c2)[nH]n1 [4 N]
57 [9.9] % inhibition | COc1ccc(/C=N/NC(=O)c2cc(-c3ccc4ccccc4c3)[nH]n2)cc1OC [Inhibitor 4A]
1 [7.9] % inhibition | O=C(N/N=C/c1ccc2c(c1)OCCO2)c1cc(-c2ccc3ccccc3c2)[nH]n1 [Inhibitor 4B]
−2 [5.4] % inhibition | COc1ccc(/C=N/NC(=O)c2cc(-c3ccc4ccccc4c3)[nH]n2)cc1 [Inhibitor 4C]
4 [4.9] % inhibition | COc1ccccc1/C=N/NC(=O)c1cc(-c2ccc3ccccc3c2)[nH]n1 [Inhibitor 4D]
−3 [7.5] % inhibition | COc1cccc(/C=N/NC(=O)c2cc(-c3ccc4ccccc4c3)[nH]n2)c1 [Inhibitor 4E]
17 [7.9] % inhibition | O=C(N/N=C/c1ccc(O)cc1)c1cc(-c2ccc3ccccc3c2)n[nH]1 [Inhibitor 4G]
10 [3.5] % inhibition | O=C(N/N=C/c1ccccc1)c1cc(-c2ccc3ccccc3c2)[nH]n1 [Inhibitor 4L]
−2 [3.8] % inhibition | O=C(N/N=C/c1cccc([N+](=O)[O-])c1)c1cc(-c2ccc3ccccc3c2)[nH]n1 [Inhibitor 4O]

The remaining lines, values behind:

SMILES | Mean SinglePoint (% inhibition) [Std. Dev (n = 4)]
O=C(N/N=C/C1CCCCC1)c1cc(-c2ccc3ccccc3c2)[nH]n1 [4 J] | −9 [12.7] % inhibition
O=C(N/N=C/c1cccc2ccccc12)c1cc(-c2ccc3ccccc3c2)[nH]n1 [4 K] | −7 [8.6] % inhibition
COc1ccc2ccccc2c1/C=N/NC(=O)c1cc(-c2ccc3ccccc3c2)[nH]n1 [Inhibitor 4F] | 6 [4.2] % inhibition
O=C(N/N=C/c1cccc(O)c1)c1cc(-c2ccc3ccccc3c2)n[nH]1 [Inhibitor 4H] | 10 [3.0] % inhibition
O=C(N/N=C/c1ccccc1O)c1cc(-c2ccc3ccccc3c2)n[nH]1 [Inhibitor 4I] | −6 [6.2] % inhibition
O=C(N/N=C/c1c(O)ccc2ccccc12)c1cc(-c2ccc3ccccc3c2)n[nH]1 [SKI-1, reference compound] | 3 [2.2] % inhibition
